Values quoted from earlier work, collected in patent US4935449A, “N-2,3-butadienyl tri- and tetraaminoalkane derivatives” (Merrell Dow Pharmaceuticals Inc., priority 1988, dated 1990).

System: tissue spermidine content
Details: combined with α-difluoromethylornithine; cited from earlier work

C=C=CCNCCCCNCC=C=C [N^1,N^4-bis-(2,3-butadienyl)-1,4-butanediamine]
tissue spermidine content: significant decline in tissue spermidine content
